# Tests used:
# Protein sequences, listed by entry. Tags and fused reporters are not part of them. Residues count along the entry.
# UniProt P28335, 33-458: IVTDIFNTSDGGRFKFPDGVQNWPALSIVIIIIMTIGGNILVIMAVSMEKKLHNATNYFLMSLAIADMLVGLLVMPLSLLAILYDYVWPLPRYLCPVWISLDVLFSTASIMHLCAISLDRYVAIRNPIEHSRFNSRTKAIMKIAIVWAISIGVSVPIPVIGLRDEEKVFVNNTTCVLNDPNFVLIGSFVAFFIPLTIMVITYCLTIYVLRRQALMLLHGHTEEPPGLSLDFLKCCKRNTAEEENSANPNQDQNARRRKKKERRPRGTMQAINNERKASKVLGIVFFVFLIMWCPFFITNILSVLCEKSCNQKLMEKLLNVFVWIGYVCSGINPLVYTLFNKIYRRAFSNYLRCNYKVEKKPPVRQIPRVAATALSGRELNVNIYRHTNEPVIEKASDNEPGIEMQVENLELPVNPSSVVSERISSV
# UniProt P28335, 33-458 S407A: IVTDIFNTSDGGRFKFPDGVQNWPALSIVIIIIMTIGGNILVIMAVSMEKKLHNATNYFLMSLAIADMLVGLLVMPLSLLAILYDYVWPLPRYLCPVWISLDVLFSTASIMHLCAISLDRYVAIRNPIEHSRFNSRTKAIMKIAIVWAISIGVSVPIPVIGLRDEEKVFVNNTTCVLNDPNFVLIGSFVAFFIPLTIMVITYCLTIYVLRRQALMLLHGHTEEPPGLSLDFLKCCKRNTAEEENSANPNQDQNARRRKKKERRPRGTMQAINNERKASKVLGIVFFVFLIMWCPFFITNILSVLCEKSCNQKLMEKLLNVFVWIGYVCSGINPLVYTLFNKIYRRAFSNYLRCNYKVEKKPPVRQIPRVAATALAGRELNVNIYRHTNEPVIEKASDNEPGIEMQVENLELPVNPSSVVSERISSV
# [1] = target: human 5-HT2C–INI (wild-type, WT) receptor (Homo sapiens, UniProt P28335); assay: cell-based
# [2] = target: S407A 5-HT2C receptor (Homo sapiens, UniProt P28335, S407A); assay: IP production and agonist-induced desensitization at the S407A 5-HT2C receptor; assay type: cell-based
smiles,measurement,setting,value
"Clc1cccc(N2CCNCC2)c1 [mCPP, 1-(3-chlorophenyl)piperazine]",EC50,[1],38.9 nM
same,EC50,[2],7.08 nM
